Like-named read-outs stand apart in the source and are kept apart here. Marks after values point to notes of the source that are not given here.
Experiments:
[1] = Circular dichroism spectroscopy (helicity); assay type: physicochemical; conditions: for θ222/208 (buffer) / fH (buffer): 10 mM phosphate buffer (pH 7.4) at 22° C.; for fH (buffer): fH calculated based on θ at 222 nm; for fH (TFE*): buffer: TFE 50:50
Experimental: CD measurements were performed using a Jasco model J-710 spectropolarimeter which was routinely calibrated with (1S)-(+)-10-camphorsulfonic acid. A stock solution of 1-2 mg of peptide was dissolved in 1 mL of water. Separate 500 μL solutions of 50, 100, 200 and 400 μM were then prepared using an appropriate amount of stock solution and making up the different with 10 mM Phosphate Buffer (final pH 7.1). […] Jasco quartz cell over the wavelength range 260-185 nm at 100 nm/min. with a bandwidth of 1.0 nm, response time of 2 s, resolution step width of 1 nm and sensitivity of 20-50 Mdeg. Each spectrum represents the average of 5 scans. Spectra were analyzed using the spectral analysis software and smoothed using ‘adaptive smoothing’ function. Concentrations were determined using the PULCON method. [Wider, Dreier, 2006, J. Am. Chem. Soc. 128:2571-2576]
The incorporation of two lactam bridges induced appreciable helicity, monitored at 222 nm, and was calculated to range between 32-77% helicity. By comparison, the unconstrained nociceptin peptides (SEQ ID NOs:1-5, 9 and 10) had less than 6% α-helicity in water. […] This is due to the fact that residues 1-6 (or 1-5 in 6) are not constrained and would not be expected to be in a helical conformation as they feature amino acids that have little or no propensity to adopt helices in proteins. To determine whether the exocyclic regions were the sole cause of low helicity, SEQ ID NO:15 without the N-terminal message was investigated further. This 12-residue peptide features eight residues (K, R, Q) known to favor α-helicity in proteins, and was 60% helical in phosphate buffer by CD spectral analysis. The serine residue is conserved within the sequence of many of these peptides and is known to be a helix breaker.

Sequences of proteins named here, by UniProt entry; tags and fusion partners are left off. A change or cut given only in a name is not applied to a line headed by its entry.
UniProt P35377: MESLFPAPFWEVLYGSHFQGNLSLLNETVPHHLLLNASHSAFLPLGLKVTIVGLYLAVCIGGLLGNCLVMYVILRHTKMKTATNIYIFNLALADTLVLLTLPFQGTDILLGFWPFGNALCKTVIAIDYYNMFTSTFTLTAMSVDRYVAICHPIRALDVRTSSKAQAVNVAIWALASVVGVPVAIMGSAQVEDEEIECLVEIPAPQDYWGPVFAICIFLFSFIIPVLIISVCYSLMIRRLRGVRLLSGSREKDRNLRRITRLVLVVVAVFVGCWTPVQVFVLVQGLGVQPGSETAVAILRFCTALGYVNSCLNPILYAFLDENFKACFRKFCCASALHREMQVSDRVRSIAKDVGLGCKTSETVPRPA

ORL-1 receptor = target: T1, ORL-1 receptor (Mus musculus, UniProt P35377); assay: Agonist functional activity assessed by ERK phosphorylation (pERK) in Neuro-2a cells; assay type: cell-based; conditions: for Emax: N2a, agonist pERK, controls PBS (0%) and 1 μM nociceptin1-17-OH (100%); for -log EC50 ± SEM / EC50 / log EC50: agonist pERK activity; for -log EC50 ± SEM / EC50: Neuro-2a cells; for EC50: read-out: EC50; for log EC50: printed as log EC50 with negative sign
T1 construct: Neuro-2a cells were a gift from Professor John Mattick's laboratory; endogenous in cells; host or cells: Neuro-2a cells
Experimental: Neuro-2a cells were a gift from Professor John Mattick's laboratory (Institute of Molecular Bioscience, University of Queensland) and were cultured in Gibco® DMEM (Invitrogen, CA, USA) supplemented with 10% FBS (Invitrogen, CA, USA), GIBCO® Pen/Strep (50 units/mL penicillin and 50 μg/mL streptomycin, Invitrogen, CA, USA) and GIBCO® NEAA (1× concentration, Invitrogen, CA, USA). Cells were split 1:10 every 3 days.
All cells were incubated at 37° C. and 5% CO2. When treated with pertussis toxin (PTX, catalogue number P7208, Sigma-Aldrich, NY, USA), cells were incubated with 500 ng/mL for 15 hours before use. Cells treated with MEK inhibitor PD98059 (catalogue number PHZ1164, Invitrogen, CA, USA) were preincubated with 50 μM for 1 hour before use.
Cells were placed in 12-well plates (NUNC™, NY, USA) and allowed to adhere for 24-36 h. […] For agonist assays, cells were challenged with compounds for 35 minutes and incubated at 37° C. (5% CO2).
Membranes were washed 3×10 minutes with TBE (with 0.1% Tween-20) and incubated with a primary antibody. For pERK, rabbit polyclonal ERK1+2 [pTpY185/187] […] Instead, rabbit IgG Phospho-ERK1 (T202/Y204)/ERK2 (T185/Y187) (1:2000, catalogue number AF1018, R&D Systems, MN, USA) was used. […] After multiple washes, the membranes were developed using ECL Detection Solution (Amersham Biosciences) and visualized using photographic film. Radiography was quantified using ImageJ (ImageI 1.36b, NIH).
pERK and total ERK concentrations were determined using a modified protocol for the AlphaScreen Surefire Assay. The modified protocol used half the volume of reagents recommended in the manufacturers' protocol with 2 μL of cell extract in both pERK and total ERK assays. The ratio of pERK to total ERK was determined using equation 1 and normalized to control. For agonist responses, the controls used were PBS (0%) and 1 μM nociceptin1-17-OH (100%). For antagonist responses, the controls used were PBS (100%) and 100 nM nociceptin1-17-NH2 (100%).
Concentration responses were analyzed using non-linear regression (variable slope) (Prism5, GraphPad Software) and data is presented as either EC50 (for agonists) or IC50 (antagonists).
Helix constrained and unconstrained peptides were pre-screened using the pERK assay at a single concentration.

CC(C)C[C@@H]1NC(=O)[C@H](CCCCN)NC(=O)[C@H](CCCNC(=N)N)NC(=O)[C@@H](NC(=O)[C@@H]2CC(=O)NCCCC[C@H](NC(=O)[C@@H](NC(=O)[C@H](Cc3ccccc3)NC(=O)CNC(=O)CNC(=O)[C@@H](N)Cc3ccccc3)[C@@H](C)O)C(=O)N[C@@H](C)C(=O)N[C@@H](CCCNC(=N)N)C(=O)N[C@@H](CCCCN)C(=O)N2)CCCCNC(=O)C[C@@H](C(N)=O)NC1=O [compound 6]
θ222/208 (buffer) [1]: 1.00
fH (buffer) [1]: 0.54
Emax (ORL-1 receptor): 96 ± 8%
-log EC50 ± SEM (ORL-1 receptor; 35 minutes): 8.51 ± 0.14

CC(C)C[C@H](NC(=O)[C@H](CCCCN)NC(=O)[C@H](CCCNC(=N)N)NC(=O)[C@H](C)NC(=O)[C@H](CO)NC(=O)[C@H](CCCCN)NC(=O)[C@H](CCCNC(=N)N)NC(=O)[C@H](C)NC(=O)CNC(=O)[C@@H](NC(=O)[C@H](Cc1ccc(F)cc1)NC(=O)CNC(=O)CNC(=O)[C@@H](N)Cc1ccccc1)[C@@H](C)O)C(=O)N[C@@H](CCCCN)C(=O)N[C@@H](CC(N)=O)C(=O)N[C@@H](CCC(N)=O)C(N)=O [compound 3]
θ222/208 (buffer) [1]: −0.10
fH (buffer) [1]: 0.02
fH (TFE*) ([1]; 22° C.): 0.10
Emax (ORL-1 receptor): 108 ± 9%
-log EC50 ± SEM (ORL-1 receptor; 35 minutes): 9.44 ± 0.12
EC50 (ORL-1 receptor; 35 minutes): 360 pM

C[C@@H](O)[C@H](NC(=O)[C@H](Cc1ccc(F)cc1)NC(=O)CNC(=O)CNC(=O)[C@@H](N)Cc1ccccc1)C(=O)NCC(=O)N[C@H]1CCCCNC(=O)C[C@@H](C(=O)N[C@@H](CCCNC(=N)N)C(=O)N[C@@H](CCCCN)C(=O)N[C@H]2CCCCNC(=O)C[C@@H](C(N)=O)NC(=O)[C@H](CCC(N)=O)NC(=O)[C@H](CC(N)=O)NC(=O)[C@H](CCCCN)NC2=O)NC(=O)[C@H](CO)NC(=O)[C@H](CCCCN)NC(=O)[C@H](CCCNC(=N)N)NC1=O [compound 8]
θ222/208 (buffer) [1]: 0.90
fH (buffer) [1]: 0.45
fH (TFE*) ([1]; determined at 25° C.): 0.93^#
Emax (ORL-1 receptor): 101 ± 6%
-log EC50 ± SEM (ORL-1 receptor; 35 minutes): 10.40 ± 0.11
EC50 (ORL-1 receptor; 35 minutes): 40 pM

C[C@@H]1NC(=O)[C@@H](NC(=O)[C@H](CCCCN)NC(=O)[C@H](CCCNC(=N)N)NC(=O)[C@@H]2CC(=O)NCCCC[C@H](NC(=O)CNC(=O)[C@@H](NC(=O)[C@H](Cc3ccccc3)NC(=O)CNC(=O)CNC(=O)[C@@H](N)Cc3ccccc3)[C@@H](C)O)C(=O)N[C@@H](CCCNC(=N)N)C(=O)N[C@@H](CCCCN)C(=O)N[C@@H](CO)C(=O)N2)CCCCNC(=O)C[C@@H](C(N)=O)NC(=O)[C@H](CCC(N)=O)NC(=O)[C@H](CC(N)=O)NC1=O [compound 7]
θ222/208 (buffer) [1]: 0.91
fH (buffer) [1]: 0.32
Emax (ORL-1 receptor): 94 ± 3%
-log EC50 ± SEM (ORL-1 receptor; 35 minutes): 9.22 ± 0.08
EC50 (ORL-1 receptor; 35 minutes): 610 pM

CC(C)C[C@H](NC(=O)[C@H](CCCCN)NC(=O)[C@H](CCCNC(=N)N)NC(=O)[C@H](C)NC(=O)[C@H](CO)NC(=O)[C@H](CCCCN)NC(=O)[C@H](CCCNC(=N)N)NC(=O)[C@H](C)NC(=O)CNC(=O)[C@@H](NC(=O)[C@H](Cc1ccc(F)cc1)NC(=O)CNC(=O)CNC(=O)CNCc1ccccc1)[C@@H](C)O)C(=O)N[C@@H](CCCCN)C(=O)N[C@@H](CC(N)=O)C(=O)N[C@@H](CCC(N)=O)C(N)=O [SEQ ID NO:10]
agonist activity at single point concentration (ORL-1 receptor; 1 μM): neither showed significant agonist activity

CC(=O)NCCCC[C@H](NC(=O)CNC(=O)[C@@H](NC(=O)[C@H](Cc1ccccc1)NC(=O)CNC(=O)CNC(=O)[C@@H](N)Cc1ccccc1)[C@@H](C)O)C(=O)N[C@@H](CCCNC(=N)N)C(=O)N[C@@H](CCCCN)C(=O)N[C@@H](CO)C(=O)N[C@@H](CC(N)=O)C(=O)N[C@@H](CCCNC(=N)N)C(=O)N[C@@H](CCCCN)C(=O)N[C@@H](CCCCNC(C)=O)C(=O)N[C@@H](C)C(=O)N[C@@H](CC(N)=O)C(=O)N[C@@H](CCC(N)=O)C(=O)N[C@@H](CC(N)=O)C(N)=O [compound 4]
θ222/208 (buffer) [1]: 0.03
fH (buffer) [1]: 0.03
fH (TFE*) ([1]; 22° C.): 0.13
Emax (ORL-1 receptor): 99 ± 8%
-log EC50 ± SEM (ORL-1 receptor; 35 minutes): 6.45 ± 0.08

CC(C)C[C@@H]1NC(=O)[C@H](CCCCN)NC(=O)[C@H](CCCNC(=N)N)NC(=O)[C@@H](NC(=O)[C@@H]2CC(=O)NCCCC[C@H](NC(=O)[C@@H](NC(=O)[C@H](Cc3ccccc3)NC(=O)CNC(=O)CNC(=O)[C@@H](N)Cc3ccccc3)[C@@H](C)O)C(=O)N[C@@H](C)C(=O)N[C@@H](CCCNC(=N)N)C(=O)N[C@@H](CCCCN)C(=O)N2)CCCCNC(=O)C[C@@H](C(N)=O)NC1=O [SEQ ID NO:6, H-FGGFT[KARKD][KRKLD]-NH2]
EC50 (ORL-1 receptor; 35 minutes): 3000 pM
log EC50 (ORL-1 receptor): −8.51±0.14

CC(C)C[C@H](NC(=O)[C@H](CCCCN)NC(=O)[C@H](CCCNC(=N)N)NC(=O)[C@H](C)NC(=O)[C@H](CO)NC(=O)[C@H](CCCCN)NC(=O)[C@H](CCCNC(=N)N)NC(=O)[C@H](C)NC(=O)CNC(=O)[C@@H](NC(=O)[C@H](Cc1ccccc1)NC(=O)CNC(=O)CNC(=O)[C@@H](N)Cc1ccccc1)[C@@H](C)O)C(=O)N[C@@H](C)C(=O)N[C@@H](CC(N)=O)C(=O)N[C@@H](CCC(N)=O)C(N)=O [compound 2]
fH (buffer) [1]: 0.02
fH (TFE*) ([1]; 22° C.): 0.10

C[C@H](NC(=O)[C@H](CCC(N)=O)NC(=O)[C@H](CC(N)=O)NC(=O)[C@H](C)NC(=O)[C@H](C)NC(=O)[C@H](CCCCN)NC(=O)[C@H](CCCNC(=N)N)NC(=O)[C@H](C)NC(=O)[C@H](CO)NC(=O)[C@H](CCCCN)NC(=O)[C@H](CCCNC(=N)N)NC(=O)[C@H](C)NC(=O)CNC(=O)[C@@H](NC(=O)[C@H](Cc1ccccc1)NC(=O)CNC(=O)CNC(=O)[C@@H](N)Cc1ccccc1)[C@@H](C)O)C(N)=O [SEQ ID NO:5]
EC50 (ORL-1 receptor; 35 minutes): 4000 pM

CC(=O)NCCCC[C@H](NC(=O)CNC(=O)[C@@H](NC(=O)[C@H](Cc1ccccc1)NC(=O)CNC(=O)CNC(=O)[C@@H](N)Cc1ccccc1)[C@@H](C)O)C(=O)N[C@@H](CCCNC(=N)N)C(=O)N[C@@H](CCCCN)C(=O)N[C@@H](CO)C(=O)N[C@@H](CC(N)=O)C(=O)N[C@@H](CCCNC(=N)N)C(=O)N[C@@H](CCCCN)C(=O)N[C@@H](CCCCNC(C)=O)C(=O)N[C@@H](C)C(=O)N[C@@H](CC(N)=O)C(=O)N[C@@H](CCC(N)=O)C(=O)N[C@@H](CC(N)=O)C(N)=O [SEQ ID NO:4, H-FGGFTGK(Ac)RKSNRKK(Ac)ANQN-NH2]
EC50 (ORL-1 receptor; 35 minutes): 360000 pM

C[C@@H]1NC(=O)[C@@H](NC(=O)[C@H](CCCCN)NC(=O)[C@H](CCCNC(=N)N)NC(=O)[C@@H]2CC(=O)NCCCC[C@H](NC(=O)CNC(=O)[C@@H](NC(=O)[C@H](Cc3ccccc3)NC(=O)CNC(=O)CNC(=O)[C@@H](N)Cc3ccccc3)[C@@H](C)O)C(=O)N[C@@H](CCCNC(=N)N)C(=O)N[C@@H](CCCCN)C(=O)N[C@@H](CO)C(=O)N2)CCCCNC(=O)C[C@@H](C(N)=O)NC(=O)[C@H](CCC(N)=O)NC(=O)[C@H](CC(N)=O)NC1=O [SEQ ID NO:7, H-FGGFTG[KRKSD]RK[KANQD]-NH2]
EC50 (ORL-1 receptor): 610 pM
log EC50 (ORL-1 receptor): −9.22±0.08

— patent US8921306B2, “Nociceptin mimetics” (The University of Queensland, priority 2010, dated 2014)
